Experimental data as given in patent US8835442B2, “3-substituted 7-imino-2-thioxo-3, 7-dihydro-2H-thiazolo [4,5-di pyrimidin-6-yl—and process for preparation thereof” (Council of Scientific & Industrial Research, priority 2009, dated 2014).

Target: T1, A2A receptor (Homo sapiens, UniProt P29274)
T1 construct: host or cells: HEK 293
Test: cAMP functional assay in forskolin-pretreated HEK 293 cells
Assay type: cell-based
Details: 25 μM forskolin 2 h, then 100 nM compound for 24 h
Description: To determine the modulation in cAMP concentrations, cells were pre-treated with Forskolin. Forskolin is commonly used to activate adenylyl cyclase, so as to raise the levels of cAMP, in the various cell physiology experiments. […] Cells were washed with ice-cold PBS (pH 7.4). Further, cells were treated with 0.1M HCl, incubated for 10 minutes and visually inspected to verify cell lysis. Lysed cells were centrifuged at 1000 rpm at room temperature and the supernatant was used directly for cAMP assay using direct cAMP assay kit. All standards and samples were run in duplicate. […]
The average net O.D. bound for each standard and sample was calculated using formula; Average Net OD=Average bound OD−Average NSB OD
The binding of each pair of standard wells as a percentage of the maximum binding well (Bo) was calculated using the formula; Percent Bound=Net OD/Net Bo OD×100
Standard curve was prepared using Logit-Log Paper plot by drawing percent bound (B/Bo) versus concentration of cAMP for the standards. The concentration of the cAMP in the samples was determined by interpolation.
Binding parameters were estimated by the computerized non-linear fitting program Graph Pad (Prism 4.0). […] Data were expressed as geometric means with 95% confidence limits in parentheses. […]

cAMP concentration: 0.25 nM
Structure (SMILES): Nc1nc2c(cnn2CCc2ccccc2)c2nc(-c3ccco3)nn12 [SCH58261, reference compound]
